pIC50: −log10 of the molar value.
Experiments:
ACL [1] = molecular target: T1, ACL (Homo sapiens (Human), UniProt P53396); assay: ACLY-MDH Coupled Assay; settings: read-out: ACL-MDH Coupled Assay (IC50); 8 nM ACL, 60 μM CoA Na2, 85 μM Citrate, 250 μM ATP, 250 μM NADH
ACL [2] = molecular target: T1, ACL; assay: ADP-Glo Assay; settings: read-out: ACL-ADP-Glo (IC50)

The chains behind the UniProt entries cited, without tags or fusion partners. A line that says so, or that is headed by a name, gives the form on record, which may keep a tag or linker.
UniProt P53396, whole entry, species assumed: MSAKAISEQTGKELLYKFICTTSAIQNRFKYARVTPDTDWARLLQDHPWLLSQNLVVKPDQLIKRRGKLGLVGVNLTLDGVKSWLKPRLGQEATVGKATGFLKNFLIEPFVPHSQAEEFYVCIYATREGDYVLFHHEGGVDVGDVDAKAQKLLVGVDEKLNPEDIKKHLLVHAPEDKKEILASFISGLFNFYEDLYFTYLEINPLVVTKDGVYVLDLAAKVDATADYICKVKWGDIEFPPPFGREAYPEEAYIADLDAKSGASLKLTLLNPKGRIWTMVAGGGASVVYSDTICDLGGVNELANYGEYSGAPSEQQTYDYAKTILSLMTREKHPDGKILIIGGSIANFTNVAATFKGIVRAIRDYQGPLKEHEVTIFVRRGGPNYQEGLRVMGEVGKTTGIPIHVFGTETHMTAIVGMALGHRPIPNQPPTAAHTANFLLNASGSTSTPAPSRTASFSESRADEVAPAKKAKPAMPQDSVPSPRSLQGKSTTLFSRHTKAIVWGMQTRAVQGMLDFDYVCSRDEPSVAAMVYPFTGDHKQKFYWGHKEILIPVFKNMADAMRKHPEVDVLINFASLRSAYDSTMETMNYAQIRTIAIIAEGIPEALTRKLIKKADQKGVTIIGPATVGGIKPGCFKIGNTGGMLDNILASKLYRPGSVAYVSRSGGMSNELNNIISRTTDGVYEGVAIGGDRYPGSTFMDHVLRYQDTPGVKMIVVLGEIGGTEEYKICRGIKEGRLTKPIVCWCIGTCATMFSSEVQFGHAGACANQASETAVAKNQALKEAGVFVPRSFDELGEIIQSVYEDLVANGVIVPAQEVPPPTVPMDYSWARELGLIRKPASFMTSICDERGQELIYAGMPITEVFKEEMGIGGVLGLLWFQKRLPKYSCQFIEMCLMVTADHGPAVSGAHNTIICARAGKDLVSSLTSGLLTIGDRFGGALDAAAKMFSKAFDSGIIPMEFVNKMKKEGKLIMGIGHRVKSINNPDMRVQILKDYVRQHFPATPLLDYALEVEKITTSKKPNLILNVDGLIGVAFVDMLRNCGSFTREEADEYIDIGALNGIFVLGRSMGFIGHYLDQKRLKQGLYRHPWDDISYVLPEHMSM
UniProt P53396, other isoform, or with tags, fused parts or gaps isoform P53396-2: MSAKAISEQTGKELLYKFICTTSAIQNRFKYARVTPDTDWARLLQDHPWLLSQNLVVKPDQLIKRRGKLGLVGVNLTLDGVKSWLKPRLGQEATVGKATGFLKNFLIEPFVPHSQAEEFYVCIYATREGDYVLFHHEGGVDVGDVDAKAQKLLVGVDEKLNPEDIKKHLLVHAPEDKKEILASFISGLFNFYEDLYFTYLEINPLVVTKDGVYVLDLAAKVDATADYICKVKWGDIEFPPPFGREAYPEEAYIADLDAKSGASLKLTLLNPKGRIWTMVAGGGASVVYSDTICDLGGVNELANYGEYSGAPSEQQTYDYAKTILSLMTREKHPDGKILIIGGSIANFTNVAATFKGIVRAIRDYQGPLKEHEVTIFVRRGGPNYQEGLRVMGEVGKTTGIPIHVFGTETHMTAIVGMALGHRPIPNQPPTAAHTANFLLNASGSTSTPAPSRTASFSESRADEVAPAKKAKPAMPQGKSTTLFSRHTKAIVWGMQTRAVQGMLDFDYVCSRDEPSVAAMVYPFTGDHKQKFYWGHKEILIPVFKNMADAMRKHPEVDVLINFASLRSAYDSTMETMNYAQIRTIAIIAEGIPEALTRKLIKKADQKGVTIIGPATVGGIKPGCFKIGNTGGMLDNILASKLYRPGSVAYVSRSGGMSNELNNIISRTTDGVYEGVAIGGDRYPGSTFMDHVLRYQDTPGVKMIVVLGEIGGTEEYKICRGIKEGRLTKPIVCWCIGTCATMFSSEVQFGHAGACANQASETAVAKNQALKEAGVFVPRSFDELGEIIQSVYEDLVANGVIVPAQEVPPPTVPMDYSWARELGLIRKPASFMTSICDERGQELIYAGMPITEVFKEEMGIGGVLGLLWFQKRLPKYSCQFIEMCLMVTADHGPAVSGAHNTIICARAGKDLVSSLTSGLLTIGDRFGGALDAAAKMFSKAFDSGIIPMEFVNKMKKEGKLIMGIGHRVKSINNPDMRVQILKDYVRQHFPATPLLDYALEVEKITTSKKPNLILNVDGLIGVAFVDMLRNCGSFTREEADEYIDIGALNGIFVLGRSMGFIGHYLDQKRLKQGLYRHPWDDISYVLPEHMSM

Q: How did the pIC50 (ACL [1]) turn out when `CN(C)C(=O)c1cc(Cl)c(O)c(S(=O)(=O)Nc2cc(-c3ccccc3)c(F)cc2F)c1` [I-83, 3-chloro-5-[(2,4-difluoro-5-phenylphenyl)sulfamoyl]-4-hydroxy-N,N-dimethylbenzamide] was run?
A: > 7.30

Q: And the pIC50 (ACL [2])?
A: > 7.30

From patent US11555012B2 (Nimbus Artemis, Inc., priority 2018, dated 2023)
